Measured values reported in publication doi:10.1101/2023.07.13.548902v1.

Test system: [H][C@@]1(O[C@H]2[C@H](O)[C@@H](O)[C@H](Oc3ccc([N+](=O)[O-])cc3)O[C@@H]2CO)O[C@H](CO)[C@H](O)[C@H](O)[C@H]1O
Assay: purified protein
Settings: 50 °C, 30 min

AfCel7A (Aspergillus fumigatus Af293; D276C/G279C)
Km (25 mM citrate pH 5.0, DSB1): 1.24 ± 0.5 mM | kcat (25 mM citrate pH 5.0, DSB1): 3.13 ± 0.2 min⁻¹

AfCel7A (Aspergillus fumigatus Af293; D322C/G327C)
Km (25 mM citrate pH 5.0, DSB2): 1.96 ± 0.2 mM | kcat (25 mM citrate pH 5.0, DSB2): 3.36 ± 0.1 min⁻¹

AfCel7A (Aspergillus fumigatus Af293; G460C/S465C)
Km (25 mM citrate pH 5.0, DSB4): 0.75 ± 0.03 mM | kcat (25 mM citrate pH 5.0, DSB4): 3.88 ± 0.01 min⁻¹

AfCel7A (Aspergillus fumigatus Af293; I432C/T416C)
Km (25 mM citrate pH 5.0, DSB3): 0.081 ± 0.009 mM | kcat (25 mM citrate pH 5.0, DSB3): 9.75 ± 0.05 min⁻¹
